The assay concerns the target T1, full-length human RACα produced in the baculovirus system (Sf9 cells) (human, UniProt P31749 1-480).
T1 construct: also called full-length RAC-PK molecule; baculovirus produced human RACα
T1 sequence: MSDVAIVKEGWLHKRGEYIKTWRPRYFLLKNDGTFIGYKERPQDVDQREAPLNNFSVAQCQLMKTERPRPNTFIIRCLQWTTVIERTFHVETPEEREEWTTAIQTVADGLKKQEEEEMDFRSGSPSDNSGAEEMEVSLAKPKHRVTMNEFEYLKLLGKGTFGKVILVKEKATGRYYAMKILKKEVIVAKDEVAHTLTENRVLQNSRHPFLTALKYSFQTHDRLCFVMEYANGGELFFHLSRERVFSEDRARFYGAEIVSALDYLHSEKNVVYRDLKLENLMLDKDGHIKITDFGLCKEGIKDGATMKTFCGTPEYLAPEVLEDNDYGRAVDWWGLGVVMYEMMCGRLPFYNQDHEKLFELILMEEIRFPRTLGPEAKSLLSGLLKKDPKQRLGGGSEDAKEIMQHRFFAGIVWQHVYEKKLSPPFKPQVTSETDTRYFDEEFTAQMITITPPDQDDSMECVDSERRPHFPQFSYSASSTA
In words: in vitro binding to GST fusions on glutathione-agarose beads, Western blot with RACα antiserum. Background: A western blot detects proteins with antibodies after separation by electrophoresis.

B1: GST (from pGEX-2T) (other, UniProt P08515 1-218, looked up)
chain: MSPILGYWKIKGLVQPTRLLLEYLEEKYEEHLYERDEGDKWRNKKFELGLEFPNLPYYIDGDVKLTQSMAIIRYIADKHNMLGGCPKERAEISMLEGAVLDIRYGVSRIAYSKDFETLKVDFLSKLPEMLKMFEDRLCHKTYLNGDHVTHPDFMLYDALDVVLYMDPMCLDAFPKLVCFKKRIEAIPQIDKYLKSSKYIAWPLQGWQATFGGGDHPPK
notes: Control protein; also called GST alone
As to B1, the binding result was “no binding (tested: 2.5 µg of each in 100 µL)”.

The values are drawn from patent US20110275102A1 (Novartis, published 2011).
